# Results: patent US20140335050A1, “METHODS, COMPOSITIONS, AND KITS FOR THE TREATMENT OF CANCER” (The General Hospital Corporation, priority 2011, published 2014)
# B1: IFN-β: IFN-β-1a (Avonex) obtained from Biogen-Idec; SEQ ID NO: 1 (protein, listed as Homo sapiens)
# chain: MSYNLLGFLQRSSNFQCQKLLWQLNGRLEYCLKDRMNFDIPEEIKQLQQFQKEDAALTIYEMLQNIFAIFRQDSSSTGWNETIVENLLANVYHQINHLKTVLEEKLEKEDFTRGKLMSSLHLKRYYGRILHYLKAKEYSHCAWTIVRVEILRNFYFINRLTGYLRN
# modifications: (1)..(166) IFN-beta-1a
# How the values were obtained:
# Type in all cases: cell-based, human
# 453A melanoma cells = test: Tumor cell/T cell co-culture IL-2 ELISA (MART-1 TCR Jurkat cells); conditions: IFN-β 5000 IU/ml for three days
# Description: (§1) We evaluated several candidate melanoma cell lines for the ability to stimulate the J-TCR-M1 cell line. Levels of Melan-A/MART-1 (determined by intracellular staining and flow cytometry) and corresponding levels of induced IL-2 (determined by coculture with J-TCR-M1 and IL-2 ELISA) were tested for different melanoma cell lines.
# (§2) Melanoma cells were treated with hits from the primary screen for three days prior to counting and plating for the coculture assay (cells were washed and resuspended in fresh medium that no longer contained the treatment agents during the co-culture). A100 μl volume of 5×10^5 cells/ml tumor cells were mixed with 50 μl of […] T cells in a 96-well V-bottom plate and incubated overnight (16-24 hours). Plates were centrifuged to pellet the cells and 100 μl of supernatant fluid was removed from each well for cytokine assay. To assess antigen-specific T cell responses, a final concentration of 3.33 μg/ml Melan-A/MART-1 peptide (26[…]35 (A27L from wild type)) was added to the co-culture.
# (§3) The protocol for evaluation of the cytokine IL-2 was performed using a the BD OptEAI kit, human IL-2 ELISA set from BD Biosciences (San Diego, Calif.) following the manufacturer's recommendations. The absorbance 450 nm was read in a BioRad 3550 plate reader. A standard curve using known concentrations of IL-2 (from 500 to 8 pg/ml) was included in each ELISA plate. IL-2 levels for experimental samples (pg/ml) were calculated from the standard curve.
# A375 melanoma cells = test: as above; conditions: IFN-β 5000 IU/ml for three days
# Description: as §1, §2, §3
# H59-44T melanoma cells = test: as above; conditions: IFN-β 5000 IU/ml for three days
# Description: as §1, §2, §3
# MALME-3M melanoma cells = test: as above; conditions: IFN-β 5000 IU/ml for three days
# Description: as §1, §2, §3
# MUX melanoma cells = test: as above; conditions: IFN-β 5000 IU/ml for three days
# Description: as §1, §2, §3
# MU89 tumor cells = test: Co-culture of treated tumor cells with HLA-A2 specific TCR Jurkat T cells, IL-2 ELISA; conditions: two separate experiments (FIG. 20)
# Excerpt: FIG. 9 is a series of graphs showing MCH class I expression. Treatment of MU89 tumor cells with IFN-β and HSP90 inhibitors increases IL-2 secretion by HLA-A2 reactive Jurkat T cells. Two seperate experiments are shown. For each experiment, cells were stained for MHC Class I levels, and the geometric mean of flow histograms is graphed in the top two graphs. The same cells were used in a co-culture experiment to assay HLA-A2 levels using a HLA-A2 reactive Jurkat T cell. The results of an IL-2 ELISA are plotted in the graphs on the bottom of the figure. The average and standard deviation of three replicates is shown.
# We utilized an in vitro cell line system we have developed to study recognition of tumor cells by T cells after MHC Class I up-regulation. We have engineered a Jurkat T cell line whose sole expressed TCR recognizes HLA-A2 regardless of the presented peptide, such that any cell line expressing surface HLA-A2 will be recognized by means of the binding specificity of this TCR. […]
# In order to evaluate T cell recognition of tumor cells, a TCR-transduced Jurkat cell line was used as previously described. […] Tumor cells were treated with either iHsp90 or interferons in combination, as described in the text, and the treated tumor cells were collected and counted after 3 to 6 days of treatment. […] The level of IL-2 is calculated by comparison to a standard curve of known quantities of IL-2.
molecule,measurement,setting,value
B1,IL-2 after coculture with MART-1 TCR Jurkat cells,453A melanoma cells,159 pg/mL
same,IL-2 after coculture with MART-1 TCR Jurkat cells,A375 melanoma cells,7 pg/mL
same,IL-2 after coculture with MART-1 TCR Jurkat cells,H59-44T melanoma cells,23 pg/mL
same,IL-2 after coculture with MART-1 TCR Jurkat cells,MALME-3M melanoma cells,289 pg/mL
same,IL-2 after coculture with MART-1 TCR Jurkat cells,MUX melanoma cells,12 pg/mL
same,Increase of IL-2 levels on co-culture with Jurkat HLA-A2 specific TCR cell line,MU89 tumor cells; listed as IFN beta,4 fold
same,Increase of IL-2 levels on co-culture with Jurkat HLA-A2 specific TCR cell line,MU89 tumor cells; listed as IFN-beta,enhanced
